Measured values as given in BindingDB's records for doi:10.1021/jm0105833 (Harvard University, 2002).

Biological target: Purine nucleoside phosphorylase (Homo sapiens) (UniProt P00491)
Assay: Binding affinity against Purine Nucleoside Phosphorylase

Kd: 1.1 nM
Compound: O=P(O)(O)OC[C@H]1O[C@@H](n2cnc3cncnc32)[C@H](O)[C@@H]1O
